The values below come from ChEMBL document CHEMBL1140340 (J Med Chem, 2005).

Amino acid sequences for entries named in this document (tags omitted).
UniProt P23977, whole entry: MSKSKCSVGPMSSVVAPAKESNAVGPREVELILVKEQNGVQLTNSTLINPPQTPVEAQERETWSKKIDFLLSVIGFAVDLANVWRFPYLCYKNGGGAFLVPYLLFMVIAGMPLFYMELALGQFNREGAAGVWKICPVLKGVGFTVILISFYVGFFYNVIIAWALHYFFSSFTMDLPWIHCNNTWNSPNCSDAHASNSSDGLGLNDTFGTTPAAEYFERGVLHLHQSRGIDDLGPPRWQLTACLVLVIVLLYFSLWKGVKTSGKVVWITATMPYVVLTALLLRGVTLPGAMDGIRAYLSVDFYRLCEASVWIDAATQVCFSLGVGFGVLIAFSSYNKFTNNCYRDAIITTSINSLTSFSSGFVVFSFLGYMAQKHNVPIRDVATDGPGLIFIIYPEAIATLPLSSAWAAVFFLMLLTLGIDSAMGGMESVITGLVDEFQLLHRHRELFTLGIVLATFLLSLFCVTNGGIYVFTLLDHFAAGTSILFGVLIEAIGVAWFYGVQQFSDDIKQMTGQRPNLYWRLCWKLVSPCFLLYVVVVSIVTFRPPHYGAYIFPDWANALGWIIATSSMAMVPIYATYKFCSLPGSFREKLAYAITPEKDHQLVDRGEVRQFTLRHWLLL
UniProt P31652, whole entry, looked up: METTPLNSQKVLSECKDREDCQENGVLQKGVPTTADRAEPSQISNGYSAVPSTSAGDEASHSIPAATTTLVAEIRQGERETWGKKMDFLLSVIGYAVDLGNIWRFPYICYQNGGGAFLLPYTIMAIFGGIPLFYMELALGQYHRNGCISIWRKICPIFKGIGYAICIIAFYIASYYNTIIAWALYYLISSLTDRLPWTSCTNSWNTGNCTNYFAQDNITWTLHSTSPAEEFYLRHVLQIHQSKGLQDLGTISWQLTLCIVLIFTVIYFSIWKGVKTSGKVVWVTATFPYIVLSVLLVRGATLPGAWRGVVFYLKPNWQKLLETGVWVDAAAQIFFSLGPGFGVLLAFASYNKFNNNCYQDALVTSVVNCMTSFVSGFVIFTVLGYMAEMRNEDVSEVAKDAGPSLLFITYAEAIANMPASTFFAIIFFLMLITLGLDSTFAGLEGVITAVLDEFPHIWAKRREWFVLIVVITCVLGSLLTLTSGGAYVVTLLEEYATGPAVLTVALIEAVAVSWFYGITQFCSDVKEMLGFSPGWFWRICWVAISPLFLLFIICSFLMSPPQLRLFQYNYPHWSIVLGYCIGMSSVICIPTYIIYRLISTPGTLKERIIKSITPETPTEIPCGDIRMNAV

In experiment [1] the target is Sodium-dependent dopamine transporter (Rattus norvegicus, UniProt P23977). Description: Inhibition of [3H]WIN-35428 binding to rat brain dopamine transporter.
Experiment [2] deals with Monoamine transporters; Norepininephrine & dopamine (Rattus norvegicus) (UniProt P23977+Q9WTR4). Put plainly: Ratio between Dopamine transporter and Norepinephrine transporter uptake. The class given is protein assay.
Experiment [3] deals with Monoamine transporters; Norepinephrine & serotonin (Rattus norvegicus) (UniProt P31652+Q9WTR4). Description: Ratio between Serotonin transporter and Norepinephrine transporter uptake. The experiment is classed as protein assay.
The target of experiment [4] is Monoamine transporters; serotonin & dopamine (Rattus norvegicus) (UniProt P31652+P23977). Put plainly: Ratio between Dopamine transporter and Serotonin transporter uptake. The experiment is classed as protein assay.

Broadly, the IC50 is the point on the concentration scale where inhibition reaches its midpoint. Lower therefore signals greater potency. `O[C@@H]1C[C@@H](C(c2ccccc2)c2ccccc2)OC[C@H]1NCc1ccccc1` had an IC50 in experiment [1] of 1860 nM. Besides, the Ratio in experiment [2] worked out at 91; in experiment [3], 140; in experiment [4], 0.63.
On to `OC1CC(C(c2ccccc2)c2ccccc2)OCC1NCc1ccccc1` (single isomer, unassigned), for which the Ratio in experiment [2] was determined as 0.37; in experiment [3], 8; in experiment [4], 0.046.
